Data published in paper PMC8342319, “Predicting blood-to-plasma concentration ratios of drugs from chemical structures and volumes of distribution in humans” (Molecular Diversity, 2021).

Assays:
plasma protein = conditions: cited from earlier work
[1] = human; cited from earlier work
[2] = human

Substance: Tenoxicam
- fp_Human (plasma protein): 0.010

Substance: Ascorbic acid [reference compound]
- Rb_Human (blood-to-plasma concentration ratio) [1]: 0.82

Substance: Buprenorphine
- in vivo MRT_(hr)_Human [2]: 4.298 h

Substance: Maraviroc
- fp_Human (free fraction in plasma) (plasma protein; human, collected value, median if multiple values were reported, ref: Table S1): 0.250
